These results are taken from paper PMC8203801, “Albumin in patients with liver disease shows an altered conformation” (Communications Biology, 2021).

The target of the data set is HSA (Homo sapiens, UniProt P02768). Kind of data set: Dansylsarcosine (DS) binding to prepared HSA, fluorescence titration. The following applies: dansylsarcosine (DS) binding to the HSA sample prepared from plasma of that patient (P) or healthy control (C); HSA diluted to 10 µmol/L in PBS, 20 min at 37 °C, fluorescence 355/460 nm.
Usually Kd stands for the constant that tells how readily two partners part at equilibrium. The low end stands for tighter binding, the high end for weaker binding. In turn, “C1: HSA prepared from plasma of healthy control person C1” had a Kd of 18 µM. For “C2: HSA prepared from plasma of healthy control person C2”, the Kd was found to be 12 µM. Next, “P1: HSA prepared from plasma of patient P1 with chronic liver failure”: 28 µM; “P2: HSA prepared from plasma of patient P2 with chronic liver failure”: 15 µM.

“P3: HSA prepared from plasma of patient P3 with chronic liver failure” returned a dissociation constant (Kd) of 25 µM. For the substance “P4: HSA prepared from plasma of patient P4 with chronic liver failure”, binding was characterised by a dissociation constant (Kd) of 22 µM. On to “P5: HSA prepared from plasma of patient P5 with chronic liver failure”, for which the dissociation constant (Kd) worked out at 28 µM. The figure for “P6: HSA prepared from plasma of patient P6 with chronic liver failure” is 17 µM; for “P7: HSA prepared from plasma of patient P7 with chronic liver failure” it is 20 µM; for “P9: HSA prepared from plasma of patient P9 with chronic liver failure” it is 13 µM.
